Earlier results on three molecules are cited in publication PMC10301092, “New Insights into the Opioid Analgesic Profile of cis-(−)-N-Normetazocine-derived Ligands” (Molecules, 2023).

The chains behind the UniProt entries cited, without tags or fusion partners.
UniProt P35372, whole entry: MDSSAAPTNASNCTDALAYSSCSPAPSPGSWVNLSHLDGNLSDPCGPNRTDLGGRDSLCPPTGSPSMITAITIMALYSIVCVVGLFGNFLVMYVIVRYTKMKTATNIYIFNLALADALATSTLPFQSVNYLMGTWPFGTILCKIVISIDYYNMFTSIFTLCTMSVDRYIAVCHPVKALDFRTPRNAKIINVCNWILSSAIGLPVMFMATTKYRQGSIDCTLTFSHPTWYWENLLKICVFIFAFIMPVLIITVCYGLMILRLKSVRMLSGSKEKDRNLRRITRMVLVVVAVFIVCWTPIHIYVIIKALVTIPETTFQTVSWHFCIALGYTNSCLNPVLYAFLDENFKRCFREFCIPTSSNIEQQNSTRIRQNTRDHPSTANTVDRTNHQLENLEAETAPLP

Where two headings read alike, the source gives them in different places.

The target in one series is μ opioid receptor (MOR) (Homo sapiens, UniProt P35372). To be noted: cited from earlier work.
Another series deals with MOR. To be noted: cited from earlier work.

The Ki is the dissociation constant of the complex between target and ligand, obtained from inhibition or displacement. Regarding `C[C@H]1[C@H]2Cc3ccc(O)cc3[C@]1(C)CCN2CCC(=O)NC1CCCCC1`, the “increase in Ki value at MOR relative to LP1” value at μ opioid receptor (MOR) is recorded as 60 fold. Further, the Ki on μ opioid receptor (MOR) (read-out: Ki (nM) ± SD MOR) was 56 nM.

Take `C[C@H]1[C@H]2Cc3ccc(O)cc3[C@]1(C)CCN2CCC(=O)Nc1cccc2ccccc12`: at μ opioid receptor (MOR) (read-out: Ki MOR), the Ki is 38 nM. The “antagonist affinity (pA2)” value in the series with MOR was 8.6 nM.

Regarding `C[C@H]1[C@H]2Cc3ccc(O)cc3[C@]1(C)CCN2CCC(=O)NCc1ccccc1`, the Ki on μ opioid receptor (MOR) (read-out: Ki (nM) ± SD MOR) was 105 nM.
